Patent publication US7179832B2, “Glycogen synthase kinase 3β inhibitor, composition and process for the preparation thereof” (Crystalgenomics, Inc., priority 2003, dated 2007)
pIC50: −log10 of the molar value.

Protein sequences, listed by entry. Tags and fused reporters are not part of them.
UniProt P49841, whole entry: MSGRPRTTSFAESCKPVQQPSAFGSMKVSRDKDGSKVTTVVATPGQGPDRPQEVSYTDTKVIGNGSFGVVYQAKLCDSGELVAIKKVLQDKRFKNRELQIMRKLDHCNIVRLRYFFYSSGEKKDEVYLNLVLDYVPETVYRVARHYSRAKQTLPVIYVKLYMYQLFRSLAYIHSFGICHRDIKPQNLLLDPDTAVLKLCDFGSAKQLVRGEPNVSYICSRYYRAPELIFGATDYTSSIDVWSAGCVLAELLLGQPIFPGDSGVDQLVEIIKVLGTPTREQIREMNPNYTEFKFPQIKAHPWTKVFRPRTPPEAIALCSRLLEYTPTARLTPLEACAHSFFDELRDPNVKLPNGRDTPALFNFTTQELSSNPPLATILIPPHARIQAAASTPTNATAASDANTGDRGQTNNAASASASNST

Molecular target: GSK-3β (Homo sapiens, UniProt P49841)
Test: Assay for GSK-3β inhibiting activity (32P-ATP, phospho-CREB peptide substrate, filter paper, CPM)
Details: 100 nM GSK-3β protein, 100 μM phospho-CREB peptide, 100 μM ATP, 30° C. for 1 hour

| SMILES | pIC50 |
| --- | --- |
| O=C(c1ccc(O)c2[nH]c(-c3ccc(Cl)cc3)nc12)N1CCCCC1 | < 5.30 |
| O=C(Nc1ccc(O)cc1)c1ccc(O)c2[nH]c(-c3ccccc3)nc12 | < 6.00 |
| NC(=O)c1ccc(O)c2[nH]c(-c3ccc(Cl)cc3Cl)nc12 | < 5.30 |

More lines, now with the values ahead:

| pIC50 | SMILES |
| --- | --- |
| < 6.00 | O=C(Nc1ccccc1)c1ccc(O)c2[nH]c(-c3ccccc3)nc12 |
| < 6.00 | O=C(Nc1ccc(CCO)cc1)c1ccc(O)c2[nH]c(-c3ccccc3)nc12 |
